Consider 30 compounds from PubChem BioAssay AID425 (Sanford-Burnham Center for Chemical Genomics, 2006).

By UniProt entry, the sequences of proteins in these tests, tags left out. Where a name states a change or a piece, a line headed by the entry shows the natural chain unless it says otherwise.
UniProt Q64346: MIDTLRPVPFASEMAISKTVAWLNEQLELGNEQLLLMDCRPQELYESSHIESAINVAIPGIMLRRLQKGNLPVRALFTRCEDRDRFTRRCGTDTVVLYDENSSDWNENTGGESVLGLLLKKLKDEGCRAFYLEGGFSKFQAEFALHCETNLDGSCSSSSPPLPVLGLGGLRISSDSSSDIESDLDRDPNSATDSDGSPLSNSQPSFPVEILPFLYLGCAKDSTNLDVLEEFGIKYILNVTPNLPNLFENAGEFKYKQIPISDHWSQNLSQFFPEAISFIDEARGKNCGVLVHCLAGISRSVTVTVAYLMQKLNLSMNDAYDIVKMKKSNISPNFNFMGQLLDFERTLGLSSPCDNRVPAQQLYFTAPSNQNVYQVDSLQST

Structures are written as SMILES. This is a selection; strong and weak results do not stand in their true shares. Potency and affinity values are given separately. The source made the active and inactive calls. Rule as the data show it: active = inhibition above about 50%; inactive = the rest.

This test has as its target Dual specificity protein phosphatase 6 (Rattus norvegicus) (UniProt Q64346). The experiment in a line: MKP-3 phosphatase inhibitors, primary screen, biochemical, rat enzyme, in vitro (AID 425).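 Also: plate controls were vehicle for no effect and reference inhibitor for full effect.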 The following applies: recombinant MKP-3 phosphatase activity, fluorescence; at 20 µM; active compounds read high.
As a reminder, the inhibition is the change of the read-out against control, counted positive when it falls. For `O=C(COc1ccccc1)OC1CN2CCC1CC2` (stereo not given), the inhibition was inactive: 1.7%.
On to `COC(=O)c1ccc(OP(=O)(Oc2ccc(Cl)cc2C)SCC(C)C)cc1` (stereo not given), for which the inhibition was inactive: 1.1%.
To `COP1(=S)c2c(C)nn(CCC#N)c2N=C(c2ccc(F)cc2)N1C` (stereo not given) belongs inactive: -4.4%.
On to `O=C(OC1CN2CCC1CC2)C12CC3CC(CC(C3)C1)C2` (stereo not given), for which the inhibition is inactive: 2.4%.
Turning to `O=C(CF)NC(Sc1ccc(Cl)cc1)C(Cl)(Cl)Cl` (stereo not given), the inhibition was inactive: -3.8%.
Regarding `O=C(NC(SC1=NCCS1)C(Cl)(Cl)Cl)c1ccc(I)cc1` (stereo not given), the inhibition was inactive: 2.5%.
To `O=P(Nc1nccs1)(c1ccccc1)c1nc2ccccc2s1` (stereo not given) belongs inactive: -2.4%.
Regarding `CCOP1(=S)c2c(C)nn(CCC#N)c2N=C(c2ccccc2F)N1C` (stereo not given), the inhibition is inactive: -7.9%.
Regarding `CCOP1(=S)c2c(C)nn(CCC#N)c2N=C(c2ccc(F)cc2)N1C` (stereo not given), the inhibition was inactive: -3.4%.
Consider `Cc1cccc(OCC(=O)OC2CN3CCC2CC3)c1` (stereo not given), for which the inhibition is inactive: -4.4%.
For the compound `Cc1cc(C)nc(SC(NC(=O)c2ccccc2)C(Cl)(Cl)Cl)n1` (stereo not given), the inhibition was inactive: -0.1%.
To `Clc1n[nH]nc1-c1nn[nH][15n]1` belongs inactive: -3.7%.
To `O=P1(Nc2ccccn2)COc2ccccc2OC1` belongs inactive: -1.8%.
With `Cc1nn(-c2ccccc2)c2c1P(=O)(N1CCOCC1)N(C)C(c1ccccc1)=N2` (stereo not given) the figure was inactive: -12.5%.
For `Cc1ccc(SC(NC(=O)c2ccccc2)C(Cl)Cl)cc1` (stereo not given), the inhibition is inactive: -1.3%.
Take `O=P1(Nc2ccc(Br)cn2)COc2ccccc2OC1`: the inhibition is inactive: -5.4%.
Regarding `Cc1ccc(OCC(=O)OC2CN3CCC2CC3)cc1` (stereo not given), the inhibition was inactive: -8.4%.
Turning to `O=P1(Nc2ncccn2)COc2ccccc2OC1`, the inhibition is inactive: -1.3%.
As for `O=CNC(Sc1nc2ccccc2o1)C(Cl)(Cl)Cl` (stereo not given), the inhibition was inactive: 3.7%.
To `CCCCSP(=O)(OCC(C)C)OCC(C)C` belongs inactive: -3.7%.
With `O=C(OC1CN2CCC1CC2)c1cccc(Cl)c1` (stereo not given), the inhibition is inactive: -2.2%.
To `CCOC(=O)NC(Sc1nc2ccccc2o1)C(Cl)(Cl)Cl` (stereo not given) belongs inactive: 1.5%; to `c1nnnn1CCn1cnnn1`, inactive: -1.5%.
As for `O=P(Nc1nccs1)(c1ccccc1)c1ccccc1`, the inhibition is inactive: -2.4%.
With `COC(=O)NC(Sc1ccc(Cl)cc1)C(Cl)Cl` (stereo not given) the figure was inactive: -1.5%; with `O=P1(Nc2nc3ccc(Cl)cc3s2)COc2ccccc2O1` (stereo not given), inactive: 1.4%.
To `COC(=O)c1cc2c(s1)N=C(c1ccccc1)N(C)P2(=O)N1CCOCC1` (stereo not given) belongs inactive: -7.9%; to `CCCCOP(=O)(OCCCC)SC`, inactive: 2.7%; to `Cc1c2non([O-])c-2c(C)[n+](=O)[n+]1[O-]`, inactive: -6.9%.
`CCc1nc2c(n1)c1c(non1O)c1c2no[n+]1[O-]`: the inhibition was inactive: -4.9%.
